# Assay results taken from PMC3648997 (Bioorganic & medicinal chemistry letters, 2013).
# Test system: ARE-bla HepG2 cell line
# Assay: cells
# Details: Homo sapiens, HepG2, read-out: ARE-inducing activity EC50
smiles,measurement,value
O=C(O)[C@@H]1CCCC[C@@H]1C(=O)N1CCc2ccccc2[C@@H]1CN1C(=O)c2ccccc2C1=O [(RSR)-5],EC50,> 100 µM
